This note sets out measurements from patent publication US20080260834A1, “VITAMIN D3 ANALOG LOADED POLYMER FORMULATIONS FOR CANCER AND NEURODEGENERATIVE DISORDERS” (priority 2002, published 2008).

For the series the following is noted: 10 mg pCPP:SA wafers loaded 0.5%, intracranial; days 1, 6, 12; listed as MCW-YB.

“Also recorded” adds a separate entry of the source.

`C=C1/C(=C\C=C2/CCCC3(C)[C@@H]([C@H](C)OCCCC(O)(CC)CC)CC[C@@H]23)CC(O)C[C@H]1CO` (stereo partly shown) [MCW-005-YB]: the “blood calcium compared to placebo wafers” value is recorded as “no weight loss or rise in serum ionized calcium; also recorded: no significant rise in blood calcium”.
